From PubChem BioAssay (NCI)
The entries are a selection whose mix differs from that of the whole data set.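 Interpretation: 100, growth as untreated; towards 0, rising growth inhibition; 0, no net growth; 0 to -100, cell death. Compounds scoring below 10 were considered active.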 The source made the active and inactive calls.

Experiments:
Assay in all cases: NCI-60 one-dose screen, 48 h (100 = growth as untreated, 0 = no growth, -100 = all killed)
[1] = test system: HCT-15 colon; conditions: 10 µM unless noted
[2] = test system: HT29 colon; conditions: 10 µM unless noted
[3] = test system: SNB-75 CNS; conditions: 10 µM unless noted
[4] = test system: SNB-19 CNS; conditions: 10 µM unless noted
[5] = test system: U251 CNS; conditions: 10 µM unless noted
[6] = test system: PC-3 prostate; conditions: 10 µM unless noted
[7] = test system: SK-MEL-5 melanoma; conditions: 10 µM unless noted
[8] = test system: UACC-62 melanoma; conditions: 10 µM unless noted
[9] = test system: LOX IMVI melanoma; conditions: 10 µM
[10] = test system: SK-MEL-28 melanoma; conditions: 10 µM unless noted
[11] = test system: SK-MEL-2 melanoma; conditions: 10 µM unless noted
[12] = test system: EKVX NSCLC; conditions: 10 µM unless noted
[13] = test system: SN12C renal; conditions: 10 µM unless noted
[14] = test system: UO-31 renal; conditions: 10 µM unless noted
[15] = test system: TK-10 renal; conditions: 10 µM unless noted
[16] = test system: ACHN renal; conditions: 10 µM unless noted
[17] = test system: CAKI-1 renal; conditions: 10 µM unless noted
[18] = test system: A498 renal; conditions: 10 µM unless noted
[19] = test system: HL-60(TB) leukemia; conditions: 10 µM unless noted
[20] = test system: CCRF-CEM leukemia; conditions: 10 µM unless noted

Compound	growth [1]	growth [2]	growth [3]	growth [4]	growth [5]	growth [6]	growth [7]	growth [8]	growth [9]	growth [10]	growth [11]	growth [12]	growth [13]	growth [14]	growth [15]	growth [16]	growth [17]	growth [18]	growth [19]	growth [20]
Cc1ccc(Sc2ccc([N+](=O)[O-])cc2[N+](=O)[O-])c([N+](=O)[O-])c1	inactive: 12.3%	active: -19.5%	inactive: 41.5%	inactive: 31.4%	active: 2.59%	inactive: 17.8%	active: 1.13%	inactive: 34.3%	inactive: 14.7%	inactive: 54.3%	active: -1.94%	inactive: 62.3%	inactive: 24%	inactive: 36.4%	inactive: 47.1%	inactive: 28.3%	active: 6.84%	inactive: 81.3%	active: -24.7%	active: 2.93%
O=Cc1sc(N(CCCl)CCCl)nc1Cl	inactive: 103%	inactive: 98.9%	inactive: 95.5%	inactive: 99.7%	inactive: 96.7%	inactive: 92%	inactive: 110%	inactive: 92.2%	inactive: 88.9%	inactive: 106%	inactive: 102%	inactive: 104%	inactive: 106%	inactive: 85.8%	inactive: 109%	inactive: 95.8%	inactive: 92.9%	inactive: 96.8%	inactive: 78.4%	inactive: 91.8%
CC(C)c1nc(Nc2ccccc2)n(P(=O)(N(C)C)N(C)C)n1	inactive: 97.9%	inactive: 98.9%	inactive: 100%	inactive: 106%	inactive: 98.7%	inactive: 101%	inactive: 102%	inactive: 105%	inactive: 108%	inactive: 109%	inactive: 103%	inactive: 106%	inactive: 98.9%	inactive: 87.8%	inactive: 102%	inactive: 104%	inactive: 102%	inactive: 92.2%	inactive: 107%	inactive: 95%
O=[N+]([O-])c1cc2cn[nH]c2cc1[N+](=O)[O-]	inactive: 117%	inactive: 106%	inactive: 91.4%	inactive: 102%	inactive: 92.6%	inactive: 83.5%	inactive: 99.1%	inactive: 90.8%	inactive: 101%	inactive: 113%	inactive: 118%	inactive: 87.3%	inactive: 90.5%	inactive: 71.6%	inactive: 134%	inactive: 95.7%	inactive: 93.2%	inactive: 92.7%	inactive: 102%	inactive: 86.9%
O=C1CSC(C(Cl)(Cl)Cl)N1c1ccc(Cl)cc1 (stereo not given)	inactive: 96.1%	inactive: 97.8%	inactive: 94.2%	inactive: 104%	inactive: 92.9%	inactive: 86.9%	inactive: 97.3%	inactive: 81.5%	inactive: 97%	inactive: 106%	inactive: 114%	inactive: 92.8%	inactive: 94.7%	inactive: 92.6%	inactive: 107%	inactive: 92.6%	inactive: 88.8%	inactive: 101%	inactive: 118%	inactive: 91.7%
O=P1(N(CCCl)CCCl)OCCCS1 (stereo not given)	inactive: 96%	inactive: 110%	inactive: 89.7%	inactive: 107%	inactive: 103%	inactive: 112%	inactive: 107%	inactive: 103%	inactive: 93.4%	inactive: 110%	inactive: 118%	inactive: 101%	inactive: 108%	inactive: 103%	inactive: 108%	inactive: 97.6%	inactive: 113%	inactive: 76.7%	inactive: 93.4%	inactive: 97.6%
O=P(Nc1ncccn1)(N1CC1)N1CC1	inactive: 106%	inactive: 106%	inactive: 100%	inactive: 100%	inactive: 98.2%	inactive: 85.1%	inactive: 96.2%	inactive: 101%	inactive: 94.7%	inactive: 102%	inactive: 119%	inactive: 91.1%	inactive: 92.5%	inactive: 96.6%	inactive: 111%	inactive: 107%	inactive: 89%	inactive: 82%	inactive: 107%	inactive: 103%
O=[N+]([O-])N1CCCS1(=O)=O	inactive: 106%	inactive: 97.5%	inactive: 87.9%	inactive: 114%	inactive: 97.6%	inactive: 81.6%	inactive: 99.5%	inactive: 113%	inactive: 97.9%	inactive: 106%	inactive: 105%	inactive: 109%	inactive: 106%	inactive: 86.8%	inactive: 90.9%	inactive: 108%	inactive: 97.4%	inactive: 94.7%	inactive: 109%	inactive: 111%
